Source: patent US20250319095A1, “USE OF BENZO[…] INCREASE SENSITIVITY TO […] A CHRONIC SSRI REGIMEN” (Compass Pathfinder Limited, priority 2020, published 2025)

Amino acid sequences for entries named in this document (tags omitted).
UniProt P35363, whole entry: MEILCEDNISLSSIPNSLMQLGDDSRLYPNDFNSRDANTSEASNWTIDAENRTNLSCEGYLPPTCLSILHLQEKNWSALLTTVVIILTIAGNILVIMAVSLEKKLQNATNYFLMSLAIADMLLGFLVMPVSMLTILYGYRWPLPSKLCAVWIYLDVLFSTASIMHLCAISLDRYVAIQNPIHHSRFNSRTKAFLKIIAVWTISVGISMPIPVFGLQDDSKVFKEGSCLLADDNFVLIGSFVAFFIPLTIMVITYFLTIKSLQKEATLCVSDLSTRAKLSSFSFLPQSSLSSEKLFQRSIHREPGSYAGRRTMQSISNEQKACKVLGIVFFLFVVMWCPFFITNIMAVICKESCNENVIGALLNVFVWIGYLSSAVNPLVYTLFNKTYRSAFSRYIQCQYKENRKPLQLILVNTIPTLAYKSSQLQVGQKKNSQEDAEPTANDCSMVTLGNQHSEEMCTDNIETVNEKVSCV

Assays:
5HT2A = biological target: T1, 5HT2A (Mus musculus, UniProt P35363); experiment: [3H]MDL100907 binding in frontal cortical membranes (5HT2A Kd and Bmax); details: 24 h post final administration
T1 construct: homogenates were prepared from frontal cortices sampled from groups E and F; from tissue; host or cells: mouse frontal cortex membranes (homogenate)
Procedure: To prepare the homogenate, frontal cortices from each animal were homogenized individually in 40 volumes (w/v) of ice cold assay buffer using a tight-fitting glass/Teflon homogenizer and centrifuged at 39,500×g for 10 min. The supernatant was discarded, and the pellet re-suspended in 40 volumes (w/v) of assay buffer and the tissue washed by centrifugation two more times. The final pellet was re-suspended in ice-cold assay buffer to 6.25 mg weight wet of tissue/ml and used immediately in the binding assay. Aliquots of final membrane preparations were also stored at −80 C until required for protein determination. All centrifugations will be carried out at 4° C.
To examine binding, the frontal cortical membranes (400 μl; equivalent to 2.5 mg wet weight of tissue/tube) were incubated with 50 μl of [3H] MDL 100907 (8 concentrations: 0.025, 0.05, 0.1, 0.2, 0.4, 0.8, 1.6, 3.2 nM) and either 50 μl of buffer (total binding) or 50 μl of 10 μM ketanserin (to define nonspecific binding) for 60 min at 25 C. […]
Membrane bound radioactivity was recovered by filtration under vacuum through Skatron 11731 filters, presoaked in 0.5% polyethylenimine (PEI) using a Skatron cell harvester. Filters were rapidly washed with ice cold wash buffer (wash setting 9,9,0) and radioactivity determined by liquid scintillation counting (1 ml Packard MV Gold scintillator). […]

[1] = oral dose equivalence; cited from earlier work

SMILES: CN1C(=O)CN=C(c2ccccc2)c2cc(Cl)ccc21 [Diazepam, diazepam]
- 5HT2A binding, change with diazepam pretreatment (5HT2A): trend increase
- Relative Potency [1]: 5 mg
